Laboratory results published in ChEMBL document CHEMBL4619726, “Synthesis of novel tryptanthrin derivatives as dual inhibitors of indoleamine 2,3-dioxygenase 1 and tryptophan 2,3-dioxygenase” (Bioorg Med Chem Lett, 2020).
pIC50: −log10 of the molar value.

By UniProt entry, the sequences of proteins in these tests, tags left out. Where a name states a change or a piece, a line headed by the entry shows the natural chain unless it says otherwise.
UniProt P48775: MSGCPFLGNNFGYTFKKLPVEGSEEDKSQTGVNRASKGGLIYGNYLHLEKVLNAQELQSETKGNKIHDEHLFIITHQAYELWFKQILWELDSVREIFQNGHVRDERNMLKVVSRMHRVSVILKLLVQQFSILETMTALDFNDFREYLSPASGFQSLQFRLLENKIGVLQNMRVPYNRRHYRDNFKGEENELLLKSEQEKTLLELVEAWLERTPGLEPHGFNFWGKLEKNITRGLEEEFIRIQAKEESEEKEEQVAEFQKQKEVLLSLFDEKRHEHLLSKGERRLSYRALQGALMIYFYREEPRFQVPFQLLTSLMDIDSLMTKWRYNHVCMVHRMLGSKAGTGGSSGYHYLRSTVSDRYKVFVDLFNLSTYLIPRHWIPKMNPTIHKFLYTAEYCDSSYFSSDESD

Biological target: Tryptophan 2,3-dioxygenase (Homo sapiens, UniProt P48775)

## Fc1ccc2c(/C=C/c3cccnc3)c[nH]c2c1
  pIC50: 6.03
